For data set [1], the system named is N=C(N)NCCC[C@H](N)C(=O)O. In words: cells, lysate or membranes named. Conditions: other: utilization of L-arginine by the NO-forming enzyme pathway; Lineweaver-Burke; pH 8.0.
In data set [2] the test system is murine brain endothelial cells (MBEC). Briefly: Nitrite production by MBEC exposed to cytokines / immunomodulators (Griess assay). The class given is cell-based. Conditions: IFN 100 U/ml, TNF 500 U/ml, IL-1 10 U/ml, endotoxin 1 μg/ml; 48 hours. The protocol:
Endothelial cells--MBEC's were isolated from murine brain microvessels and cultured on gelatin-coated tissue culture dishes in DME/F12 media supplemented with 2% PPPHS, 5% FBS (Hyolone), 50 μg/ml ECGF (Biomed Tech), and 10 U/ml heparin (Sigma) as previously described (Belloni et al. 1989). The endothelial derivation of MBEC's was determined by the presence of a non-thrombogenic surface to platelets and immunofluorescent staining for Factor VIII related antigen. MBEC's were used between passage 6-9 for all experiments.
Nitrite Assay--MBE cells were cultured on gelatin-coated well plates (Corning) in 100 μl of culture medium and treated with cytokines at 3 days post-confluence. After 48 hours, nitrite production was determined by a colorimetric assay. […] All treatments were performed in triplicate and data presented as the mean value±standard deviation. […]
The accumulation of nitrites in the culture medium was also found to occur in a time dependent manner with the first detectable increase at 8 hours after addition of TNF and IFN (FIG. 3). […] Although both TNF and IFN have been reported to cause morphological alterations in human umbilical cord endothelial cells, no changes in the gross morphology of these murine microvascular endothelial cells was detected under these conditions.
For orientation: Griess reagent forms a coloured azo dye with nitrite.

In general, Km refers to the concentration of substrate that gives half-maximal velocity.

As to “EMT6 enzyme system (NO formation from L-arginine) (Mus musculus)”, the Km in data set [1] worked out at 61.6 µM. With Il-2: interleukin-2, the “effect on nitrite production by MBEC” value in data set [2] was “Neither muramyl dipeptide (MDP) or Il-2 alone, or in combination with IFN effected nitrite production”.

For the origin of these results see US5770623A, “Argine antagonists for inhibition of systemic hypotension associated with nitric oxide production or endothelial derived relaxing factor” (Board of Regents, The University of Texas System, priority 1995, dated 1998).
